AlphaSeq binding of Ab-14 light chain variants to a spike HR2 peptide

Reference: Li et al. 2023, doi:10.1038/s41467-023-39022-2. File: FLAb, binding data.

Antigen: PDVDLGDISGINAS, a 14-residue peptide of the SARS-CoV-2 spike HR2 region.

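These sequences belong to a second round, designed from the earlier measurements on random variants of the parent. Group labels follow the data file (Ctrl: baseline library sampled from a position-specific scoring matrix, with some repeated check sequences; Rand: our label for a block that the file lists under HC and that is probably the random mutants of the ten best first-round binders; En: ensemble of fine-tuned language models; GP: Gaussian process model; HC: hill climbing; Gen: genetic algorithm; Gibbs: Gibbs sampling; a sequence that several methods proposed may carry one label only). AlphaSeq pools MATa yeast showing the antibodies with MATalpha yeast showing the peptide. After mating in shaken culture at 30 °C for 16 h, diploids were selected and their barcode pairs sequenced. A regression on co-assayed BCL2-family reference pairs converts the normalised counts of each replicate to an apparent Kd. There are six technical replicates.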

Parent scFv Ab-14: VH joined to VL by three GGGGS repeats. Changes lie in the light chain CDRs alone.
VH: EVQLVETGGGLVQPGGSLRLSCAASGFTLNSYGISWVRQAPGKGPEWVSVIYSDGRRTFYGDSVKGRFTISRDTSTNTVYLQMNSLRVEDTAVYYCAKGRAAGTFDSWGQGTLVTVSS
VL: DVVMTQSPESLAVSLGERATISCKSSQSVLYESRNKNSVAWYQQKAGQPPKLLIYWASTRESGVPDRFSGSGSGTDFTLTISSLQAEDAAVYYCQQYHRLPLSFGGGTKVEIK

Variants are written as CDR1, CDR2 and CDR3 of the light chain (limits as in the source). Parent: KSSQSVLYESRNKNSVA, WASTRES, QQYHRLPLS.
Numbers give log10(Kd / nM), so 0 is 1 nM and 3 is 1 µM. Smaller is tighter.
A pair that was not seen in that replicate is written "n.d."; this usually means weak binding, but a binder can also be missed.
Empty control strains, which show no peptide, gave a signal in 4% of pairings with all light chain designs; the median was 2.64 and 95% of these signals were weaker than 1.59. No background was subtracted.
The authors' rule: three or more of the six replicates give a measured affinity, fewer mean a poor binder.
A sequence measured in both rounds can read differently, since the two assays cover different ranges.

"log10 Kd, replicates",CDR-L1,CDR-L2,CDR-L3,group
-0.28 / 0.61 / 0.41 / 0.30 / 0.52 / 0.40,KLSMMDLYESRMSNSVA,MASTREV,QQYHRLPLS,GP_Gibbs
0.35 / 0.36 / 0.19 / 0.16 / 0.47 / 0.12,KLVNFMNRGTHHTSNIA,DAVNRLD,QQYARLPLA,En_Gen
1.14 / 0.77 / 0.88 / 0.93 / 0.91 / 0.97,KSSQSVLYESLNKNSVA,QASTRTS,QQYHRLPLS,Ctrl
1.46 / 1.76 / 1.61 / 3.39 / 1.28 / 1.66,KSSQSVWLERRNKNSVA,WASTRES,QQYHRLPLS,Ctrl
1.10 / 1.11 / n.d. / 1.67 / 2.21 / 1.03,MIQDNYAGNTDSGNSIA,AEATWMD,QQYSRLPLA,En_Gibbs
0.13 / -0.25 / -0.12 / -0.19 / -0.06 / -0.22,KLSQSVLEESRNKNSVA,GASTRSS,QQYHRLPLS,Ctrl
2.00 / 1.58 / 1.66 / 1.87 / 1.51 / 1.24,HSSPAVRYESRNKNSVA,NASTREE,DDYHRLPLS,Rand
1.76 / 1.43 / 1.86 / 1.78 / 1.10 / 1.85,SVSNLGMVPSVWENSIA,DVTIVEE,QQYSRLPLL,En_Gibbs
1.02 / 0.46 / 0.21 / 0.07 / 0.45 / 0.61,KLAMILSMEAGTYHGVA,DAEHKAD,QQYNRLPLS,En_Gibbs
0.13 / 0.41 / 0.26 / 0.72 / 0.43 / 0.40,KSSQSVLYESRNFNSVA,SASTRHS,QQYHRLPLS,Ctrl
-0.14 / -0.28 / -0.40 / -0.68 / -0.62 / -0.43,KFDQGALYESRNKNSVA,GASTRES,QQYHRLPLS,GP_HC
n.d. / n.d. / n.d. / n.d. / n.d. / n.d.,NFSYALFGMDAKKKSIA,ENEVTEY,QQYAKLPLT,En_Gibbs
1.67 / 0.84 / 0.97 / 0.50 / 0.29 / 0.91,KLSQSLLYESRNKNSVA,WASTRES,QQYHRLPLS,Ctrl
1.45 / 1.33 / 1.48 / 1.72 / 1.45 / 1.69,IISGSMMMESRHKNSVA,NAETREY,QHYDRLPLS,En_HC
n.d. / n.d. / n.d. / n.d. / n.d. / n.d.,IVSQLMLWGHLAKNSIA,EAQTRLN,QQYDRLPLF,En_Gen
0.22 / 0.13 / 0.16 / -0.12 / -0.06 / 0.28,KLSQSFLYESRNKNSVA,GGSTRES,QQYHRLPLS,GP_HC
0.27 / 0.23 / 0.12 / 0.05 / 0.01 / 0.13,HLSQSWLYESRNKNSVA,NASQRLS,QQYHRLPLS,GP_Gen
-0.22 / 0.56 / -0.21 / -0.66 / -0.30 / 0.07,KLTMISGTEKVHGNNVA,EMETRER,QQYNRLPLA,En_Gen
0.52 / 0.26 / 0.36 / 0.49 / 0.50 / 0.58,NMNVGLNFGKIQEQAIA,EVEKRES,QQYARLPLT,En_Gibbs
0.34 / 0.61 / 0.12 / 0.20 / 0.24 / 0.53,KSSSSVLYESNNKNSVA,HASTRED,QQYHRLPLS,GP_HC
n.d. / n.d. / n.d. / n.d. / n.d. / n.d.,KSGQSVLYESTNKNSVA,WMSTRES,QQYHRLPLS,Ctrl
-0.07 / -0.40 / -0.37 / -0.21 / -0.37 / -0.26,KLSQSDLYESRNKNAVA,AASTRES,QQYHRLPLS,GP_Gen
1.45 / 1.71 / 1.33 / 1.05 / 1.01 / 1.83,KTDQSVLYEQQNKNSVA,WASTRES,QQYHRLPLS,Ctrl
1.46 / 1.44 / 0.31 / 1.23 / 0.89 / 0.81,NLMHHQGRYDVWKYSIA,EASIRAS,QQYFRLPLA,En_Gibbs
0.22 / 0.07 / 0.16 / -0.25 / 0.04 / -0.09,KSSGSYLYESRNENSVA,EASTREQ,QQYHRLPLS,GP_HC
0.44 / 1.42 / 0.12 / -0.11 / 0.48 / 0.85,NISQMIFMETKNHNNVA,QTSTREE,QDYHRLPLS,En_HC
n.d. / 2.32 / 2.45 / 2.26 / 2.81 / 3.82,TIGQVMHYESRNKNSVA,QTSTREE,QDYDRLPLS,En_HC
1.34 / 0.87 / 1.47 / 0.56 / 1.19 / 1.17,KLRQLTVIESFNKNNVA,EMSTRES,QSYDRLPLS,En_HC
0.87 / 0.73 / 0.88 / 0.40 / 0.59 / 0.61,KISMMVGTKGGARNSVA,NEQTRYD,QQYHRLPLS,En_HC
0.92 / 0.52 / 0.76 / 0.40 / 0.81 / 0.66,KVPQSVLYESRNKNSVA,WAHTRES,QQYHRLPLS,Ctrl
-0.28 / -0.40 / -0.30 / -0.59 / -0.44 / -0.38,KLGQSVAMTTRNKNNVA,DLNERER,QQYHRLPLS,En_HC
-0.37 / -0.36 / -0.25 / -0.29 / -0.40 / -0.22,KLSQSVLMESRNKNSVA,EASTREM,QQYHRLPLS,GP_Gen
0.06 / 0.16 / -0.08 / -0.38 / 0.01 / -0.03,KIELSNSVSLRGTRAIA,DGSERAH,QQYHRLPLT,En_Gibbs
0.13 / 0.05 / 0.13 / -0.07 / -0.07 / 0.20,KWSQSVLGESRNKMSVA,NGSTRES,QQYHRLPLS,GP_Gibbs
0.19 / 0.26 / -0.15 / -0.08 / 0.03 / 0.20,KLSQSTLYESRNKNSVA,QASTRES,QQYHRLPLT,GP_HC
1.14 / 1.14 / 1.18 / 0.72 / 1.29 / 1.08,KSSQSMLYESNNKNSVA,WASTRED,QQYHRLPLS,Ctrl
0.48 / 0.42 / 0.21 / -0.14 / 0.24 / 0.25,KSGWGVLYESRNKNHVA,GASTRES,QQYHRLPLS,GP_HC
1.54 / 1.46 / 1.13 / 0.76 / 1.61 / 0.89,KLGQMTAIESRNLNSVA,QMDTREE,QQYHRLPLS,En_HC
1.46 / 1.44 / 1.45 / 1.48 / 1.02 / 1.74,KSSQSVLYESRNLNSVA,WASTREP,QQYHRLPTS,Ctrl
2.23 / 1.91 / 1.74 / 1.58 / 1.44 / 2.02,NISLFIPEFKMWDNNIA,GATLRPT,QDYARLPLS,En_Gibbs
1.17 / 0.85 / 0.71 / 0.76 / 0.84 / 0.89,KLSQSYLYESRNKNAVA,NASQRES,QQYHRLPLS,GP_Gen
-0.68 / -0.56 / -0.85 / -1.01 / -0.78 / -0.52,KLPQSDLYESRNKNSVA,NASTREQ,QQYHRLPLS,GP_Gen
0.02 / -0.22 / -0.05 / -0.40 / -0.22 / -0.15,SLYEMAHELSGKKNSVA,DNSTRGE,QQYFRLPLE,En_Gen
n.d. / n.d. / n.d. / n.d. / n.d. / n.d.,KSLWSVLYESRNKNSVA,HASTRED,QQYHRLPLS,GP_HC

From the list, the first 4 with no signal in any replicate:

CDR-L1,CDR-L2,CDR-L3,group,"log10 Kd, replicates"
NFSYALFGMDAKKKSIA,ENEVTEY,QQYAKLPLT,En_Gibbs,n.d. / n.d. / n.d. / n.d. / n.d. / n.d.
IVSQLMLWGHLAKNSIA,EAQTRLN,QQYDRLPLF,En_Gen,n.d. / n.d. / n.d. / n.d. / n.d. / n.d.
KSGQSVLYESTNKNSVA,WMSTRES,QQYHRLPLS,Ctrl,n.d. / n.d. / n.d. / n.d. / n.d. / n.d.
KSLWSVLYESRNKNSVA,HASTRED,QQYHRLPLS,GP_HC,n.d. / n.d. / n.d. / n.d. / n.d. / n.d.